# Test results taken from patent US20250051332A1 (priority 2022, published 2025).
# Sequences of proteins named here, by UniProt entry; tags and fusion partners are left off. A change or cut given only in a name is not applied to a line headed by its entry.
# UniProt P41145: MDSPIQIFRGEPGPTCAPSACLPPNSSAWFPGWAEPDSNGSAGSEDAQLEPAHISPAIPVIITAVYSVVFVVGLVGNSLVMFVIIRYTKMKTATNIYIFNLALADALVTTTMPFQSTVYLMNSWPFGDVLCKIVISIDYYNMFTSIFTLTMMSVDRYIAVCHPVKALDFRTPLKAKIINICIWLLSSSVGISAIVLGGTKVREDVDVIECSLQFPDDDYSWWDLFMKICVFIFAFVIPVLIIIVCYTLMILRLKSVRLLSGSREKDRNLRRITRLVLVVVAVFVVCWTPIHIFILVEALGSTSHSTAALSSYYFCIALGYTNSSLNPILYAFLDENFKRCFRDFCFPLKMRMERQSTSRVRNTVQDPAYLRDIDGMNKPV
# Target: T1, κOR (Homo sapiens, UniProt P41145)
# T1 construct: host or cells: CHO-K1
# Type: cell-based
smiles,measurement,value
"C/C=C1/CN2CC[C@]34C(=C(C(=O)OC)[C@H]1C[C@H]23)Nc1ccc(I)cc14 [Compound 3, 10-Iodoakuammicine]",κOR cAMP inhibition Emax ± SEM (%),98 ± 2%
